In publication PMC3552326 one finds maximal inhibition of GCase activity (4MU-β-Glu, POPC/POPS vesicles) data, which are given here for one substance.

The assay concerns the target glucocerebrosidase (taliglucerase alfa, recombinant GCase) (human) (UniProt P04062).

Turning to “α-synuclein, wild type (from UniProt P37840 1-140) (natural protein)”, the maximal inhibition of GCase activity (4MU-β-Glu, POPC/POPS vesicles) was 76%.
